Structures are written as SMILES. Active and inactive are the calls of the source. No rule for the calls is given here.

Amino acid sequences for entries named in this document (tags omitted).
UniProt P47898, whole entry, looked up: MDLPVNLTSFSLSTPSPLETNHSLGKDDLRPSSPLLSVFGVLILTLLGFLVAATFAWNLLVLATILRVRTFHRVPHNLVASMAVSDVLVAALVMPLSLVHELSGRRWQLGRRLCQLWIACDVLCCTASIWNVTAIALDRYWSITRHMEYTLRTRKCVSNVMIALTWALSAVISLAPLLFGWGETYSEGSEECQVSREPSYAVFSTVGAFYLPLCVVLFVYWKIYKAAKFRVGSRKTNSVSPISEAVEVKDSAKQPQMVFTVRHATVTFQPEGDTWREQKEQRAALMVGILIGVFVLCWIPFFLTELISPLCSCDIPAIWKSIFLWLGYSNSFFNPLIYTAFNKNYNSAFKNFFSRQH

The target of this test is 5-hydroxytryptamine receptor 5A (Homo sapiens) (UniProt P47898). The test can be described thus: activation of human HTR5A receptor, late-stage follow-up, counter-screen for OPRM1-OPRD1 heterodimer activator project, cell-based, luminescence, dose response (AID 651688). The conditions noted are these: HTR5A counterscreen cells, luminescence (beta-arrestin/complementation). In general terms: A counterscreen serves to expose hits that act by an unwanted route or on another target.

The term EC50 denotes the midpoint of the concentration-response curve. Consider `CCOc1ccc(CN2CCC(Nc3cccc4ccccc34)CC2)cc1C#N`, for which the EC50 is inactive: > 40 µM.

The values above are taken from PubChem BioAssay AID651688 (The Scripps Research Institute Molecular Screening Center, 2012).
